UUG fidelity: yeast start codon fidelity modulation | S. cerevisiae UUG-firefly luciferase reporter, luminescence/redox ratio | activity score, % at 18.7 µM | 350,000 tested, 0.13% active;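 active = replicate mean at a twofold rise or more, about +100% in these data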;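 also: firefly luciferase made from a UUG start codon reports start codon fidelity; reporter light over untreated wells divided by growth signal over untreated wells; some hits fall short of that in this replicate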
dFosB act-1: activators of mouse delta FosB homodimer; actives 0.99% (n = 340,000); purified delta FosB, TAMRA-CDK5 oligo fluorescence polarization; percent of positive-control signal above neutral wells; activation, % at 25 µM; P13346;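 active means mean activation above about 17%, with every replicate also reaching it, limit read from the data, passing the limit was not always enough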
CDK5 inh: blocks human CDK5/p35 kinase activity; Q00535+Q15078; Recombinant CDK5/p35, ADP-Glo luminescence, 60 min; inhibition, % at 10 µM; actives 0.01% (n = 330,000);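 active means highest replicate inhibition of at least 50% and at least 75% of replicates reaching 50%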;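 further: plate controls were DMSO neutral control for no effect and GW8510 at 10 µM for full effect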
CAL PDZ FP-1: blocks peptide binding to the human CAL PDZ domain. purified CAL PDZ, TMR-peptide fluorescence polarization, 1 h. actives 0.92% (n = 300,000). inhibition, % at 24.9 µM. AID 602252;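 active means mean inhibition of at least 30% with at least half of replicates also reaching 30%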;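 further: 0% = DMSO neutral control and 100% = excess unlabeled competitor peptide PRC23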
CAL PDZ FP-2: blocks peptide binding to human CAL PDZ domain | purified CAL PDZ, TMR-peptide fluorescence polarization, 1 h | inhibition, % at 20 µM | Q9HD26 | AID 504414 | actives 0.02% (n = 330,000);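 active means highest replicate inhibition of at least 40%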;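 further: plate controls were DMSO neutral control wells for no effect and unlabeled competitor peptide control wells for full effect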
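Test system: tagged CAL PDZ domain / Buffer or medium: sodium phosphate/NaCl buffer pH 7.4 with TCEP, IgG, Thesit / Reagent: TMR-labelled reporter peptide T*-PRC34 bound in PDZ groove / Compound dosing: single point, 20 µM / Schedule: 1 h incubation at room temperature before polarization reading / Technique: fluorescence polarization (mP) / Benchmarks: unlabelled peptide, DMSO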
Dyrk1A ADPGlo: Dyrk1A (rat) kinase inhibition | ADP-Glo luminescence, NFATc1 peptide | inhibition, % at 12.5 µM | actives 0.43% (n = 310,000) | AID 504441; in the data active means inhibition above about 50%;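 further: plate controls were vehicle with enzyme for no effect and no enzyme for full effect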
dFosB act-2: delta FosB (mouse) homodimer activation | 2,400 tested, under 10 active | activation, % at 24.9 µM | purified delta FosB, TAMRA-CDK5 oligo fluorescence polarization; normalised: neutral wells 0, positive control 100 | shares compounds with dFosB act-1;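 active means highest replicate activation at or above 34% and every replicate reaching that threshold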;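 further: higher polarization means more probe DNA bound by delta FosB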
Numbers without * were called inactive; · = not tested or not shown. An excerpt weighted towards active compounds, which were near 1.7% of everything screened.

1) COc1cccc(NC(=O)N(C)C[C@H]2Oc3cc(-c4ccccc4F)ccc3S(=O)(=O)N([C@@H](C)CO)C[C@H]2C)c1
2) O=c1[nH]c(/C=C/c2ccc(OC(F)F)cc2)nc2c1cnn2-c1ccccc1
3) CN(C)CC(=O)N1CCCCN2[C@H](CO)[C@@H](c3ccc(-c4cccnc4)cc3)[C@@H]2C1
4) CN(CC(=O)Nc1ccc(F)cc1)C(=O)CCc1nc2ccccc2c(=O)[nH]1
5) CCCN(CC(=O)Nc1ccc(F)c(F)c1F)C(=O)CCc1nc2ccccc2c(=O)[nH]1
6) CN(CC(=O)Nc1ccc(Cl)c(C(F)(F)F)c1)C(=O)CCc1nc2ccccc2c(=O)[nH]1
7) CNc1nc(Nc2ccc(C(C)=O)cc2)nc(OC(C(F)(F)F)C(F)(F)F)n1
8) C[C@H](CO)N1C[C@H](C)[C@@H](CN(C)S(C)(=O)=O)Oc2ccc(NC(=O)C3CC3)cc2CC1=O
Screen / compound no.,1,2,3,4,5,6,7,8
UUG fidelity,6,·,-3,-12,-12,-12,14,-7
dFosB act-1,·,65*,·,-4,40*,52*,44*,·
CDK5 inh,·,0,·,-3,0,-2,1,·
CAL PDZ FP-1,·,-3,·,0,-1,-3,-3,·
CAL PDZ FP-2,·,-2,·,-1,0,-1,-1,·
Dyrk1A ADPGlo,·,0,·,1,-6,·,6,·
dFosB act-2,·,1,·,·,0,4,-1,·

9) O=C(NNC(=O)c1cc2ccccc2cc1O)Nc1ccc(F)cc1F
10) O=C(NNC(=O)c1cc2ccccc2cc1O)Nc1ccc(Br)cc1
11) C[C@@H]1CN([C@H](C)CO)C(=O)c2cccc(NS(C)(=O)=O)c2O[C@@H]1CN(C)S(=O)(=O)c1cn(C)cn1
12) COc1ccc(OC)c(-c2cc(C(=O)Nc3ccc(F)cc3F)no2)c1
13) C[C@H]1CN([C@@H](C)CO)C(=O)c2cc(NS(=O)(=O)c3cn(C)cn3)ccc2O[C@@H]1CN(C)Cc1ccccc1
14) O=C(CSc1nnc(-c2ccncc2)n1Cc1ccco1)Nc1nc(-c2ccccc2)cs1
15) CN(Cc1ccccc1)S(=O)(=O)c1nnc(NC(=O)c2ccc(F)cc2)s1
16) COc1ccc(C(=O)Nc2nnc(S(=O)(=O)N(C)Cc3ccc(F)cc3)s2)cc1OC
Screen / compound no.,9,10,11,12,13,14,15,16
UUG fidelity,-16,-6,-11,-7,-6,-11,-14,-8
dFosB act-1,30*,15,·,33*,·,33*,13,23*
CDK5 inh,0,1,·,1,·,-1,-1,0
CAL PDZ FP-1,-1,-1,·,-4,·,3,-5,-1
CAL PDZ FP-2,-1,-1,·,0,·,-3,-1,-2
Dyrk1A ADPGlo,-2,7,·,-2,·,-4,5,1
dFosB act-2,-10,·,·,6,·,-2,·,5

17) Oc1ccc(C[C@H]2CNC(=S)N2CC2CCCN2C[C@H](Cc2ccccc2)N2C[C@H](Cc3ccc(O)cc3)N(CC3CCCCC3)C2=S)cc1 (some centres not stated)
18) Oc1ccc(C[C@H]2CNC(=S)N2CC2CCCN2C[C@H](Cc2ccc(O)cc2)N2C[C@H](Cc3ccccc3)N(CC3CCCCCC3)C2=S)cc1 (some centres not stated)
19) CCOc1ccc(CCN2C(=S)N([C@@H](Cc3ccc(O)cc3)CN3CCCC3CN3C(=S)NC[C@@H]3Cc3ccc(O)cc3)C[C@@H]2CC(C)C)cc1 (some centres not stated)
20) COCC(=O)Nc1ccc2c(c1)C(=O)N(C)[C@H]1CC[C@H](CC(=O)NCc3ccc(OC)cc3)O[C@H]1CO2
21) COC(=O)Cn1c(=NC(=O)CSCC(=O)NC2CCCCC2)sc2cc(OC)ccc21
22) Cc1cc(NC(=O)CN2CCc3ccccc3C2)nc2c1c(=O)oc1ccccc12
23) CCCC(=O)Nc1cc(C)c2c(=O)oc3ccccc3c2n1
24) O=C(N[C@H]1CC[C@H](CCNC(=O)C2CCCCC2)O[C@@H]1CO)c1ccncc1
Screen / compound no.,17,18,19,20,21,22,23,24
UUG fidelity,-22,-18,-13,-7,-8,-8,2,-9
dFosB act-1,·,72*,88*,·,29*,31*,-42,·
CDK5 inh,·,1,-1,·,0,-1,-2,·
CAL PDZ FP-1,·,-2,-3,·,·,·,·,·
CAL PDZ FP-2,·,-1,0,·,0,-2,-2,·
Dyrk1A ADPGlo,·,·,·,·,6,5,15,·
dFosB act-2,·,3,3,·,-1,0,·,·

Brought forward from above: 4 entries, followed by the next part.
21) COC(=O)Cn1c(=NC(=O)CSCC(=O)NC2CCCCC2)sc2cc(OC)ccc21
22) Cc1cc(NC(=O)CN2CCc3ccccc3C2)nc2c1c(=O)oc1ccccc12
23) CCCC(=O)Nc1cc(C)c2c(=O)oc3ccccc3c2n1
24) O=C(N[C@H]1CC[C@H](CCNC(=O)C2CCCCC2)O[C@@H]1CO)c1ccncc1
25) Cc1ccc(C(=O)OCC(=O)Nc2cc(F)ccc2F)cc1NC(=O)c1ccco1
26) Clc1cc(Cl)cc(Nc2ncnc(-n3cccc3)n2)c1
27) CNc1ccc([N+](=O)[O-])cc1-c1nc2ccccc2[nH]c1=O
28) CN(C)CCCNC(=O)C[C@@H]1CC[C@H]2[C@@H](COC[C@H](O)CN2Cc2cccc(Cl)c2)O1
29) COc1ccc(-c2[nH]ncc2/C=N/NC(=O)c2ccc(Br)cc2)c(OC)c1
30) COc1ccc(C(=O)N/N=C/c2cn[nH]c2-c2ccc(OC)cc2OC)cc1
31) COc1ccc(-c2[nH]ncc2/C=N/NC(=O)c2ccncc2)c(OC)c1
32) COc1cc(/C=C(\C#N)c2nc3ccccc3[nH]2)ccc1OC(=O)c1ccco1
Screen / compound no.,21,22,23,24,25,26,27,28,29,30,31,32
UUG fidelity,-8,-8,2,-9,-15,-4,-9,3,-23,-20,-20,·
dFosB act-1,29*,31*,-42,·,32*,30*,40*,·,8,17*,19*,27*
CDK5 inh,0,-1,-2,·,-1,3,2,·,1,2,0,0
CAL PDZ FP-1,·,·,·,·,-2,-5,-3,·,1,-5,-8,-3
CAL PDZ FP-2,0,-2,-2,·,-1,-1,1,·,-7,-5,-5,-5
Dyrk1A ADPGlo,6,5,15,·,0,·,4,·,3,3,1,-2
dFosB act-2,-1,0,·,·,8,-1,1,·,·,4,0,4

33) COc1cc(/C=C(/C#N)c2nc3ccccc3[nH]2)ccc1OCC(=O)Nc1ccccc1C
34) C[C@H](CO)N1C[C@H](C)[C@@H](CN(C)Cc2ccc(C(F)(F)F)cc2)Oc2ccc(NC(=O)c3ccncc3)cc2CC1=O
35) CNC[C@@H]1OCCCC[C@@H](C)Oc2ccc(NS(=O)(=O)c3ccccc3)cc2C(=O)N([C@H](C)CO)C[C@@H]1C
36) Cc1ccc2nc3c(c(N)c2c1)CCN3C
37) COc1ccc(C(=O)Nc2nc3cc(OC)c(OC)cc3c(=O)[nH]2)cc1
38) C[C@H]1CN([C@@H](C)CO)C(=O)c2cc(C#CC3(O)CCCC3)cnc2O[C@@H]1CN(C)Cc1ccncc1
39) C[C@H]1CN([C@@H](C)CO)C(=O)Cc2cc(NS(=O)(=O)c3ccc(F)cc3)ccc2O[C@@H]1CN(C)C(=O)Nc1cccc2ccccc12
40) Cc1cc(NC(=O)CSc2nnc(Nc3ccccc3)s2)no1
41) Cc1ccccc1NC(=O)CSc1nnc(NC(=O)c2ccco2)s1
42) Cc1cc(NC(=O)CSc2nnc(Nc3ccccc3C)s2)no1
Screen / compound no.,33,34,35,36,37,38,39,40,41,42
UUG fidelity,11,-1,11,4,-7,-8,-1,·,-18,·
dFosB act-1,-7,·,·,18*,25*,·,·,11,39*,62*
CDK5 inh,1,·,·,1,0,·,·,-2,0,0
CAL PDZ FP-1,1,·,·,-3,·,·,·,-1,4,-1
CAL PDZ FP-2,0,·,·,0,-1,·,·,0,-1,-1
Dyrk1A ADPGlo,-1,·,·,-1,14,·,·,0,-1,-7
dFosB act-2,·,·,·,0,0,·,·,·,0,0

Assay outcomes as filed in PubChem BioAssay.
